Experimental data published in ChEMBL document CHEMBL1141011, “Carbonic anhydrase inhibitors: 2-substituted-1,3,4-thiadiazole-5-sulfamides act as powerful and selective inhibitors of the mitochondrial isozymes VA and VB over the cytosolic and membrane-associated carbonic anhydrases I, II and IV” (Bioorg Med Chem Lett, 2008).

What was measured:
Homo sapiens [1] = species on record: Homo sapiens; assay: Selectivity for full length human recombinant mitochondrial carbonic anhydrase 5B over human recombinant cytosolic carbonic anhydrase 2
Homo sapiens [2] = species on record: Homo sapiens; assay: Selectivity for full length human recombinant mitochondrial carbonic anhydrase 5A over human recombinant cytosolic carbonic anhydrase 2

CC(=O)Nc1nnc(S(N)(=O)=O)s1
Selectivity ratio (Homo sapiens [1]): 0.22
Selectivity ratio (Homo sapiens [2]): 0.19
